Test results reported in publication PMC7279249, “Synthesis of Fmoc-Triazine Amino Acids and Its Application in the Synthesis of Short Antibacterial Peptidomimetics” (International Journal of Molecular Sciences, 2020).

How the values were obtained:
E. coli (KCTC 1682) = conditions: Gram-negative; serial 2-fold dilutions in 1% peptone, 1 to […]; 18 h incubation; lowest concentration causing 100% inhibition of growth (no visible turbidity)
Method: (§1) The bacterial cells were grown overnight for 18 h at 37 °C in 10 mL of Mueller Hinton broth (MHB). The 10 μL of this culture was inoculated into 10 mL of fresh MHB and incubated for an additional 3 h at 37 °C to obtain mid-logarithmic phase organisms. Aliquots (100 μL) of bacterial cell suspension at 4 × 10^6 CFU/mL in 1% peptone were added to 100 μL of the sample solutions (serial 2-fold dilutions in 1% peptone). […] The MIC values were determined after 18 h of incubation.

[1] = tested on: P. aeruginosa (KCTC 1637); conditions: Gram-negative; serial 2-fold dilutions in 1% peptone, 1 to […]; 18 h incubation; lowest concentration causing 100% inhibition of growth (no visible turbidity)
Method: as §1

[2] = tested on: Staphylococcus aureus (KCTC 1621); conditions: Gram-positive; serial 2-fold dilutions in 1% peptone, 1 to […]; 18 h incubation; lowest concentration causing 100% inhibition of growth (no visible turbidity)
Method: as §1

[3] = tested on: Staphylococcus epidermidis (KCTC 1917); conditions: Gram-positive; serial 2-fold dilutions in 1% peptone, 1 to […]; 18 h incubation; lowest concentration causing 100% inhibition of growth (no visible turbidity)
Method: as §1

CC[C@H](C)[C@H](NC(=O)CN)C(=O)NCC(=O)N[C@@H](C)C(=O)N[C@H](C(=O)N[C@@H](CC(C)C)C(=O)N[C@@H](CCCCN)C(=O)N[C@H](C(=O)N[C@@H](CC(C)C)C(=O)N[C@H](C(=O)N[C@H](C(=O)NCC(=O)N[C@@H](CC(C)C)C(=O)N1CCC[C@H]1C(=O)N[C@@H](C)C(=O)N[C@@H](CC(C)C)C(=O)N[C@H](C(=O)N[C@@H](CO)C(=O)N[C@@H](Cc1c[nH]c2ccccc12)C(=O)N[C@H](C(=O)N[C@@H](CCCCN)C(=O)N[C@@H](CCCNC(=N)N)C(=O)N[C@@H](CCCCN)C(=O)N[C@@H](CCCNC(=N)N)C(=O)N[C@@H](CCC(N)=O)C(=O)N[C@@H](CCC(N)=O)C(N)=O)[C@@H](C)CC)[C@@H](C)CC)[C@@H](C)O)[C@@H](C)O)C(C)C)C(C)C [melittin, reference compound]
16 mg/L: MIC, E. coli (KCTC 1682) (E. coli (KCTC 1682)) | MIC, P. aeruginosa (KCTC 1637) [1] | MIC, Staphylococcus aureus (KCTC 1621) [2] | MIC, Staphylococcus epidermidis (KCTC 1917) [3]
